Laboratory results: PubChem BioAssay AID368 (University of Pittsburgh Molecular Library Screening Center, 2006)
This is a selection; strong and weak results do not stand in their true shares. Activity calls are given as the source filed them. No stated cut-off is given here; in the data, active means inhibition above about 50%; inactive means the rest.

Protein sequences, listed by entry. Tags and fused reporters are not part of them.
UniProt P30305, whole entry: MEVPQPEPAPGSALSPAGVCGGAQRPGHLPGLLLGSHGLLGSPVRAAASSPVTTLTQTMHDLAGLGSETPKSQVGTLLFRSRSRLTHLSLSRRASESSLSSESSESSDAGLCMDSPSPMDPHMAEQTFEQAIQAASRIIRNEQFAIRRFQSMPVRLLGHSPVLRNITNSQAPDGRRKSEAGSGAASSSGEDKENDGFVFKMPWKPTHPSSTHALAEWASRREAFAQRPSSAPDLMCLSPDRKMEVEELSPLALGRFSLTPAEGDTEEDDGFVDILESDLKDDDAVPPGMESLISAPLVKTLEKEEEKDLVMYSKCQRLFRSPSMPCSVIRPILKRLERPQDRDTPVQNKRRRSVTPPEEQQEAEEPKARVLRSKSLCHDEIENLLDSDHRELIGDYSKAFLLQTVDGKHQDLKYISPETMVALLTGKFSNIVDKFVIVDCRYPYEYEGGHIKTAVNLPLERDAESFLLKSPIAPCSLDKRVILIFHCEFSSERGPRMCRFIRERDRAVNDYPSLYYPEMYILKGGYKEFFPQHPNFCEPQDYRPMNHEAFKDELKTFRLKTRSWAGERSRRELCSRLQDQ

Target: M-phase inducer phosphatase 2 (Homo sapiens) (UniProt P30305)
Experiment: inhibitors of Cdc25B phosphatase catalytic domain, primary screen, biochemical, OMFP fluorescence (AID 368)
Settings: recombinant Cdc25B, OMFP fluorescence Ex485/Em525; hits give high values;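 compounds tested at 10 µM final in the well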

| Structure (SMILES) | inhibition |
| --- | --- |
| CN(C)CCOC(=O)C(O)(c1ccccc1)C1CCCCC1 (stereo not drawn) | inactive: -4.85% |
| CCOP(C)(=S)SCC(=O)NC(C)(CC)C(=O)O (stereo not drawn) | inactive: -4.79% |
| Cc1ccccc1NP(C)(=O)Nc1ccccc1C | inactive: -13.3% |
| CP(=O)(Nc1ccc2c(c1)OCCO2)Oc1ccccc1 (stereo not drawn) | inactive: -12.4% |
| CP(=O)(Nc1ccccc1F)Oc1ccccc1 (stereo not drawn) | inactive: -5.08% |
| COc1ccccc1OP(C)(=O)Nc1ccc(C)c(C)c1 (stereo not drawn) | inactive: 1.83% |
| Cc1nc2ccc3ccccc3c2o1.O=[N+]([O-])c1cc([N+](=O)[O-])c(O)c([N+](=O)[O-])c1 | inactive: -1.83% |
| CP(=O)(Nc1ccccn1)Oc1ccccc1 (stereo not drawn) | inactive: -0.711% |
| COc1ccccc1OP(C)(=O)Nc1c(C)n(C)n(-c2ccccc2)c1=O (stereo not drawn) | inactive: -9.74% |
| CP(=O)(Oc1ccccc1)N1CCOC1=O (stereo not drawn) | inactive: -7.95% |
| CCN(CC)CC(O)COC(=O)C(O)(c1ccccc1)C1CCCCC1 (stereo not drawn) | inactive: 9.07% |
| CP(=S)(Nn1cnnc1)Oc1ccccc1 (stereo not drawn) | inactive: -2.64% |
| CP(=O)(NC(=O)Nc1ccccc1)Oc1ccccc1 (stereo not drawn) | inactive: -10.6% |
| CCOP(C)(=S)SCC(=O)NC(C)C(=O)O (stereo not drawn) | inactive: -12.5% |
| COc1ccccc1OP(C)(=O)Nc1ccc(C)cc1 (stereo not drawn) | inactive: 0.333% |
| Cc1ccc(NP(C)(=O)Oc2ccccc2)c(C)c1 (stereo not drawn) | inactive: -7.26% |
| Cc1ccc(C)c(NP(C)(=O)Oc2ccccc2)c1 (stereo not drawn) | inactive: 2.21% |
| Cc1nc2ccc3ccccc3c2s1.O=[N+]([O-])c1cc([N+](=O)[O-])c(O)c([N+](=O)[O-])c1 | inactive: 5.19% |
